Reference: patent US20110312984A1, “STAT3 INHIBITORS” (priority 2008, published 2011)

The chains behind the UniProt entries cited, without tags or fusion partners. Residues count along the entry.
UniProt P40763, 2-770 limits assumed: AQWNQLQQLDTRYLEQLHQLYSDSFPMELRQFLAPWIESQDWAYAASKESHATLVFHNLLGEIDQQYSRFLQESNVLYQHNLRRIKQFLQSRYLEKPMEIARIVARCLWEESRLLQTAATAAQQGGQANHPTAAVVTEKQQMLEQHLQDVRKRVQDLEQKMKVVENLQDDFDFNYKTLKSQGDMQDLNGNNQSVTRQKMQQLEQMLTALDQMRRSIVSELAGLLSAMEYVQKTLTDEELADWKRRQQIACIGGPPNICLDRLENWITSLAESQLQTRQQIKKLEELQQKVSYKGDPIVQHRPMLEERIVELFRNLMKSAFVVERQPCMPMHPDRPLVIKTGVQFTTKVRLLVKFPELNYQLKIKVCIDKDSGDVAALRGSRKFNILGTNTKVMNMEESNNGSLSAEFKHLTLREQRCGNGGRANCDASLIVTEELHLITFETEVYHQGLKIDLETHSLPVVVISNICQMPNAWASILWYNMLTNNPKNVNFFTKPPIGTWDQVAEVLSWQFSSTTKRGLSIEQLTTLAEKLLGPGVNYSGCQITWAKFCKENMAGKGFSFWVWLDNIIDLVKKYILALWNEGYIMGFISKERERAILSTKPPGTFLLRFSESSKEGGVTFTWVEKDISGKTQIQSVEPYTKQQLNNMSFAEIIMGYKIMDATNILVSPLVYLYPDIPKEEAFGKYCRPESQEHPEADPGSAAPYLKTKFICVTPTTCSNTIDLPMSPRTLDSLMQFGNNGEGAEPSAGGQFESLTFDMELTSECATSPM

Biological target: T1, Stat3:hSIE complexes (Homo sapiens, UniProt P40763)
T1 construct: endogenous in cells; host or cells: HepG2
Assay: Electrophoretic mobility shift assay (EMSA) with hSIE probe, extracts of IL-6-stimulated HepG2 cells
Type: biochemical
Settings: 300 μM, 60 minutes at 37° C.
Method: Electrophoretic Mobility Shift Assay (EMSA): EMSA was performed using the hSIE radiolabeled duplex oligonucleotide as a probe as described (Tweardy et al., 1995). Briefly, high salt extracts were prepared from HepG2 cells incubated without or with IL-6 (30 ng/ml) for 30 minutes. Protein concentration was determined by Bradford Assay and 20 ug of extract was incubated with compound (300 uM) for 60 minutes at 37° C. […] Gels were dried and autoradiographed.

With `COC(=O)Cc1c(C)c2ccc(OCc3ccc(C(=O)OC)cc3)c(C)c2oc1=O` [Cpd3-7, methyl 4-({[3-(2-methyoxy-2-oxoethyl)-4,8-dimethyl-2-oxo-2H-chromen-7-yl]oxy}methyl)benzoate] the “amount of hSIE shifted (Stat3:hSIE band intensity)” value was “reduced the amount of hSIE shifted by half or greater”.
